Assay results published in patent US20050255041A1, “Cancerous disease modifying antibodies” (Arius Research, Inc., priority 2004, published 2005).

Assays:
[1] = tested on: OVCAR-3; test: Binding by flow cytometry (FACS); set-up: species or system human; details: printed: AR2A72.10 20 mg/mL, anti-fas 10 mg/mL, anti-EGFR C225 5 mg/mL; on ice 30 minutes
Method: (§1) Binding of AR2A72.10 to the above-mentioned panel of cancer and normal cell lines was also assessed by flow cytometry (FACS). Cells were prepared for FACS by initially washing the cell monolayer with DPBS (without Ca^++ and Mg^++). Cell dissociation buffer (INVITROGEN, Burlington, ON) was then used to dislodge the cells from their cell culture plates at 37° C. After centrifugation and collection, the cells were resuspended in DPBS containing MgCl2, CaCl2 and 2 percent fetal bovine serum at 4° C. (staining media) and counted, aliquoted to appropriate cell density, spun down to pellet the cells and resuspended in staining media at 4° C. in the presence of test antibodies (AR2A72.10) or control antibodies (isotype control, anti-Fas) at 20 μg/mL on ice for 30 minutes. Prior to the addition of Alexa Fluor 488-conjugated secondary antibody the cells were washed once with staining media. The Alexa Fluor 488-conjugated antibody in staining media was then added for 30 minutes. The cells were then washed for the final time and resuspended in fixing media (staining media containing 1.5% paraformaldehyde). Flow cytometric acquisition of the cells was assessed by running samples on a FACScan using the CellQuest software (BD Biosciences, Oakville, ON). The forward (FSC) and side scatter (SSC) of the cells were set by adjusting the voltage and amplitude gains on the FSC and SSC detectors. […] Table 3 tabulated the mean fluorescence intensity fold increase above isotype control and is presented qualitatively as: less than 1.5 (−); 1.5 to 3 (+); 4 to 10 (++); 11 to 100 (+++) and >100 (++++).

[2] = tested on: A2780-cp; test: Binding by flow cytometry (FACS); set-up: species or system human; details: printed: AR2A72.10 20 mg/mL, anti-fas 10 mg/mL, anti-EGFR C225 5 mg/mL; on ice 30 minutes
Method: as §1

[3] = tested on: OCC-1; test: Binding by flow cytometry (FACS); set-up: species or system human; details: printed: AR2A72.10 20 mg/mL, anti-fas 10 mg/mL, anti-EGFR C225 5 mg/mL; on ice 30 minutes
Method: as §1

[4] = tested on: Hey; test: Binding by flow cytometry (FACS); set-up: species or system human; details: printed: AR2A72.10 20 mg/mL, anti-fas 10 mg/mL, anti-EGFR C225 5 mg/mL; on ice 30 minutes
Method: as §1

[5] = tested on: OV2008; test: Binding by flow cytometry (FACS); set-up: species or system human; details: printed: AR2A72.10 20 mg/mL, anti-fas 10 mg/mL, anti-EGFR C225 5 mg/mL; on ice 30 minutes
Method: as §1

[6] = tested on: C-13; test: Binding by flow cytometry (FACS); set-up: species or system human; details: printed: AR2A72.10 20 mg/mL, anti-fas 10 mg/mL, anti-EGFR C225 5 mg/mL; on ice 30 minutes
Method: as §1

[7] = tested on: Hs888.Lu; test: Binding by flow cytometry (FACS); set-up: species or system human; details: printed: AR2A72.10 20 mg/mL, anti-fas 10 mg/mL, anti-EGFR C225 5 mg/mL; on ice 30 minutes
Method: as §1

[8] = tested on: CCD-27sk; test: Binding by flow cytometry (FACS); set-up: species or system human; details: printed: AR2A72.10 20 mg/mL, anti-fas 10 mg/mL, anti-EGFR C225 5 mg/mL; on ice 30 minutes
Method: as §1

[9] = tested on: OVCA-429; test: Binding by flow cytometry (FACS); set-up: species or system human; details: printed: AR2A72.10 20 mg/mL, anti-fas 10 mg/mL, anti-EGFR C225 5 mg/mL; on ice 30 minutes
Method: as §1

[10] = tested on: ES-2; test: Binding by flow cytometry (FACS); set-up: species or system human; details: printed: AR2A72.10 20 mg/mL, anti-fas 10 mg/mL, anti-EGFR C225 5 mg/mL; on ice 30 minutes
Method: as §1

[11] = tested on: OVCAR-3; test: Live/Dead cytotoxicity assay, purified antibody; type: cell-based, human; details: 5 days; AR2A72.10 and AR3BD-26 20 μg/mL, anti-fas and anti-Her2/neu 10 μg/mL, anti-EGFR 5 μg/mL, cycloheximide 0.5 μM, NaN3 0.1%

anti-EGFR: anti-EGFR (C225, IgG1, kappa, Cedarlane), positive control antibody
FACS mean fluorescence intensity fold increase above isotype control, OVCAR-3 [1]: +++ (11 to 100) | FACS mean fluorescence intensity fold increase above isotype control, A2780-cp [2]: + (1.5 to 3) | FACS mean fluorescence intensity fold increase above isotype control, OCC-1 [3]: +++ (11 to 100) | FACS mean fluorescence intensity fold increase above isotype control, Hey [4]: +++ (11 to 100) | FACS mean fluorescence intensity fold increase above isotype control, OV2008 [5]: +++ (11 to 100) | FACS mean fluorescence intensity fold increase above isotype control, C-13 [6]: +++ (11 to 100) | FACS mean fluorescence intensity fold increase above isotype control, Hs888.Lu (normal) [7]: +++ (11 to 100) | FACS mean fluorescence intensity fold increase above isotype control, CCD-27sk (normal) [8]: ++ (4 to 10) | FACS mean fluorescence intensity fold increase above isotype control, OVCA-429 [9]: +++ (11 to 100) | FACS mean fluorescence intensity fold increase above isotype control, ES-2 [10]: +++ (11 to 100) | In vitro cytotoxicity, OVCAR-3 [11]: + (2/4 experiments greater than threshold cytotoxicity)
